Laboratory results: ChEMBL document CHEMBL5223103, “FLT3 inhibitors for acute myeloid leukemia: successes, defeats, and emerging paradigms” (RSC Med Chem, 2022)

Key:
[1] = target: T1, Receptor-type tyrosine-protein kinase FLT3 (Homo sapiens, UniProt P36888); test: Inhibition of human FLT3
[2] = target: T1, Receptor-type tyrosine-protein kinase FLT3; test: Inhibition of FLT3 mutant (unknown origin)
[3] = target: Receptor-type tyrosine-protein kinase FLT3 (Homo sapiens, UniProt P36888, D835Y); test: Inhibition of FLT3 D835Y mutant (unknown origin)

IC50 [1]: 6.4 nM | IC50 [2]: 12 nM | IC50 [3]: 18.3 nM
Structure (SMILES): C1=C/COCc2cc(ccc2OCCN2CCCC2)Nc2nccc(n2)-c2cccc(c2)COC/1 [PACRITINIB]
